Results on one compound are retold here after patent publication US20250051332A1 (priority 2022, published 2025).

The chains behind the UniProt entries cited, without tags or fusion partners. Where a name states a change or a piece, a line headed by the entry shows the natural chain unless it says otherwise.
UniProt P41145: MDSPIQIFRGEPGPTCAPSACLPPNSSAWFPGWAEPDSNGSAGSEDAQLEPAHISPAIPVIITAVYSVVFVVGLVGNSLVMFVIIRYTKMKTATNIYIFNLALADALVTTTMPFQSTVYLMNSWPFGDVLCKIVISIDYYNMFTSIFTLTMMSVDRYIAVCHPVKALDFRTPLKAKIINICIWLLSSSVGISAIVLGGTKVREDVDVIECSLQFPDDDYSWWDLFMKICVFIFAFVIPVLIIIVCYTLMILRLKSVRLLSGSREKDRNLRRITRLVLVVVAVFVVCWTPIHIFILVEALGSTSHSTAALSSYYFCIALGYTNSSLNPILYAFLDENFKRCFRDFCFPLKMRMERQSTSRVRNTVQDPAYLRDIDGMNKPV

The target of this experiment is T1, κOR (Homo sapiens, UniProt P41145).
T1 construct: host or cells: CHO-K1
The experiment is classed as cell-based.

As to `C/C=C1/CN2CC[C@]34C(=C(C(=O)OC)[C@H]1C[C@H]23)Nc1ccc(I)cc14` [Compound 3, 10-Iodoakuammicine], the “κOR cAMP inhibition Emax ± SEM (%)” value was determined as 98 ± 2%.
